# AlphaSeq binding of Ab-95 light chain variants to a spike HR2 peptide

Data: MIT Lincoln Laboratory AlphaSeq set, Engelhart et al. 2022, doi:10.1038/s41597-022-01779-4, as distributed in FLAb.

Target: peptide PDVDLGDISGINAS, taken from heptad repeat 2 (HR2) of SARS-CoV-2 spike.

Ab-95 is the parent antibody, in scFv form: VH, then a 15-residue (Gly4Ser)3 linker, then VL. The heavy chain is unchanged in all variants.
VH: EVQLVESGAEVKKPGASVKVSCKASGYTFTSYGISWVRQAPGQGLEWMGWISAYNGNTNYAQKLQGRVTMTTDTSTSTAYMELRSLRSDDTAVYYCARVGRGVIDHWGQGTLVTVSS
VL: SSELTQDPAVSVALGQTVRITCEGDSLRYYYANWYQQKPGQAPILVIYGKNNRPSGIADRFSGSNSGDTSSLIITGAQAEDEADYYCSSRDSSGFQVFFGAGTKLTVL

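In library AAYL52, one, two or three CDR residues were substituted; doubles and triples were drawn at random. The scFvs were displayed on barcoded MATa yeast, the peptide on MATalpha yeast. The frequency of each diploid, read from paired DNA barcodes, reflects how well the two displayed proteins bind. Read counts were normalised to the haploid input and turned into Kd by a linear fit to BCL2-family pairs of known affinity, for each replicate. Each pool was mated in three replicate cultures.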

Substitutions are numbered in sequence along the VL above, starting at 1 (not Kabat). Values are log10 of the apparent Kd in nM; lower means stronger binding. The mean shown is taken over the replicates in which the pair was detected. An entry "ND" has no value in the source: the pair was not observed among the diploids in that replicate. This suggests poor binding but is not conclusive. Nonspecific signal, from three strains lacking the peptide, appeared in 28% of pairings of library AAYL52, centred on 3.91 (5% of these signals below 2.90); values are not corrected for it. For each scFv, signals with the empty controls are counted beside the result, with their mean in brackets.

| # | changes | replicates, log10 nM | mean, log10 nM | empty controls |
|---|---|---|---|---|
| 1 | Y30W Y31L V97G | 3.70 3.25 3.74 | 3.56 | 0/9 |
| 2 | G24P Y29L Y31P | 2.63 2.85 ND | 2.74 | 4/9 (3.78) |
| 3 | Y29K R53K | 2.89 2.43 2.37 | 2.56 | 6/9 (3.97) |
| 4 | Y31S K50W S88E | 1.54 2.10 1.57 | 1.74 | 3/9 (4.08) |
| 5 | S55N D91G G94F | 2.65 3.35 ND | 3.00 | 4/9 (4.02) |
| 6 | G24N L27H S92K | ND ND ND | ND | 2/9 (4.14) |
| 7 | E23A N33E V97E | 3.83 ND ND | 3.83 | 1/9 (3.93) |
| 8 | S26Y P54I G94Y | 2.08 2.36 1.60 | 2.01 | 4/9 (4.18) |
| 9 | L27I S89M Q96E | 3.98 5.86 ND | 4.92 | 5/9 (4.26) |
| 10 | E23V A32V P54Q | 3.22 5.07 3.21 | 3.84 | 4/9 (4.98) |
| 11 | A32P G49H Q96I | 3.61 3.11 4.28 | 3.66 | 6/9 (3.93) |
| 12 | L27N P54D S55Y | 3.41 ND 4.42 | 3.91 | 6/9 (3.95) |
| 13 | N52K R90D | ND ND ND | ND | 2/9 (3.70) |
| 14 | S89G G94W | 2.99 2.35 2.44 | 2.59 | 2/9 (3.91) |
| 15 | E23H R28E | 2.12 2.02 1.93 | 2.02 | 3/9 (4.08) |
| 16 | L27N N33G F95Y | ND ND ND | ND | 1/9 (4.65) |
| 17 | L27D N33Y S89W | ND ND ND | ND | 1/9 (4.04) |
| 18 | Y30A N33G S93H | 4.50 5.75 ND | 5.13 | 4/9 (4.03) |
| 19 | E23D S26H R53F | 4.21 2.99 4.30 | 3.83 | 2/9 (3.81) |
| 20 | S26E N52W S93A | 4.30 ND ND | 4.30 | 1/9 (3.61) |
| 21 | N52D R53S S55G | 4.80 5.78 2.86 | 4.48 | 3/9 (4.31) |
| 22 | D25N S55F V97K | 4.62 ND 3.63 | 4.13 | 5/9 (4.36) |
| 23 | L27M | 2.50 2.32 2.92 | 2.58 | 2/9 (4.45) |
| 24 | S26E N51G | 3.07 3.56 4.06 | 3.56 | 5/9 (4.49) |
| 25 | R28T D91W F95P | 4.52 5.05 ND | 4.79 | 2/9 (3.74) |
| 26 | S92V Q96W | 2.79 ND ND | 2.79 | 3/9 (3.62) |
| 27 | S26P R53Y S93Q | 4.93 4.83 ND | 4.88 | 5/9 (3.89) |
| 28 | R53H S89H R90Q | 3.86 ND 3.79 | 3.83 | 4/9 (4.60) |
| 29 | Y29G S92R G94S | 1.49 1.50 0.58 | 1.19 | 3/9 (4.01) |
| 30 | G24R P54V S88L | 3.85 5.02 4.56 | 4.48 | 3/9 (3.78) |
| 31 | R28I S88Y S92W | 3.96 4.27 3.21 | 3.81 | 6/9 (3.76) |
| 32 | R53P P54W F98L | ND 3.96 4.40 | 4.18 | 3/9 (3.91) |
| 33 | D25P G49T F95Y | 3.03 3.49 ND | 3.26 | 3/9 (4.07) |
| 34 | G24Q D25G S93M | 3.29 3.73 ND | 3.51 | 5/9 (4.29) |
| 35 | A32V P54F S89K | ND ND ND | ND | 0/9 |
| 36 | G24D Y29S S88G | 3.74 3.20 2.63 | 3.19 | 5/9 (4.50) |
| 37 | S55F F95C Q96L | ND 3.95 ND | 3.95 | 2/9 (2.95) |
| 38 | A32E N33G Q96Y | ND 2.79 3.71 | 3.25 | 6/9 (4.16) |
| 39 | Y31F A32Y F98V | 4.60 4.38 ND | 4.49 | 5/9 (4.09) |

Extract of 3 entries:

{"changes": "S26E N52W S93A", "replicates, log10 nM": "4.30 ND ND", "mean, log10 nM": "4.30", "empty controls": "1/9 (3.61)"}
{"changes": "Y31F A32Y F98V", "replicates, log10 nM": "4.60 4.38 ND", "mean, log10 nM": "4.49", "empty controls": "5/9 (4.09)"}
{"changes": "Y29G S92R G94S", "replicates, log10 nM": "1.49 1.50 0.58", "mean, log10 nM": "1.19", "empty controls": "3/9 (4.01)"}